Data on one molecule can be found in PMC6649693, “Disordered region of H3K9 methyltransferase Clr4 binds the nucleosome and contributes to its activity” (Nucleic Acids Research, 2019).

For this assay, the target named is T1, Clr4_[…] (fission yeast).
T1 construct: source: E. coli Bl21(DE3) pLysS, purified (Ni-NTA, size exclusion chromatography); unlabeled or 15N- / 15N/13C-labeled; not shown: FLAG, C-terminal, kept
Nature of the assay: NMR titration; 2D 1H-15N HSQC at 15°C, 50 μM 15N-labeled Clr4 CD or Clr4 1–191; nucleosome at ratios 1:0.5, 1:1, 1:2, peptide at 1:1 and 1:5; 50 mM phosphate buffer pH 6.8, 150 mM NaCl, 1 mM DTT, 10% D2O. The settings on record: both partners purified.

B1: [Lys(Me3)9]-Histone H3 ([…])-GGK(Biotin) peptide (peptide)
peptide: not shown
modifications: trimethyl-lysine at 9 (Lys(Me3)9); biotin on the C-terminal lysine (K(Biotin))
notes: C-terminal linker with the biotinylated lysine; also called H3K9me3 peptide; H3K9 peptide; source: bought: Eurogentec (synthetic peptide)
In the case of B1, the binding result is reported as “binds”.
